US11325884B2, “Ketone inhibitors of lysine gingipain” (CORTEXYME, INC., priority 2016, dated 2022)

Biological target: lysine gingipain (Kgp) (Porphyromonas gingivalis (strain ATCC 33277 / DSM 20709 / CIP 103683 / JCM 12257 / NCTC 11834 / 2561), UniProt B2RLK2)
Assay: Inhibition of lysine gingipain, fluorogenic assay (Z-His-Glu-Lys-MCA)
Format: biochemical
Conditions: Table 4
Experimental: The specific assay conditions were as follows. Buffer: pH=7.5, 100 mM Tris-HCl, 75 mM NaCl, 2.5 mM CaCl2, 10 mM cysteine, 1% DMSO after all additions. Protein: 0.1 nM Kgp, isolated from culture of Porphyromonas gingivalis, as described by Pike et al. (J. Biol. Chem. 1994, 269(1), 406), and Potempa and Nguyen (Current Protocols in Protein Science. 2007, 21.20.1-21.20.27). Fluorogenic substrate: 10 μM Z-His-Glu-Lys-MCA. Time=90 minutes. Temperature=37° C.
Further assays to measure the inhibitory activity of compounds of the present invention against Kgp and cathepsins B, H, K, L, and S were conducted as described in Example 66. The capacities of the compounds to inhibit the activity of cathepsins F, V, and Z were also measured.

NCCCC[C@@H](NC(=O)C1CCCC1)C(=O)COc1c(F)ccc(F)c1F [Compound 21]
IC50: 0.09 nM
